Source: ChEMBL document CHEMBL3865850, “Discovery of Potent and Selective Leads against Toxoplasma gondii Dihydrofolate Reductase via Structure-Based Design” (ACS Med Chem Lett, 2016)

Target: T1, Dihydrofolate reductase (Homo sapiens, UniProt P00374)
T1 sequence (P00374 whole entry): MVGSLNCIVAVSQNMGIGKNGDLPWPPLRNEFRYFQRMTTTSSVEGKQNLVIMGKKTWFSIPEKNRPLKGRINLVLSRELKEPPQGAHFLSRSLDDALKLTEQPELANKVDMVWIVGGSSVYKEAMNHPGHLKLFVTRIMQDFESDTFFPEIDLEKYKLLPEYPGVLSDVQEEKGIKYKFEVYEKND
Experiment: Inhibition of recombinant human DHFR expressed in Escherichia coli preincubated for 15 mins followed by addition of DHF as substrate and NADPH measured after 60 mins by resazurin/diaphorase coupled assay

SMILES: Nc1ncc(N2CCN(c3cccc(-c4ccccc4)c3)CC2)c(N)n1
- IC50: 0.76 µM
